Measurements from patent publication US20070275091A1, “Compositions And Methods For Improved Mucus Function” (priority 2004, published 2007).

Test: Viscoelasticity and spinnability of cystic fibrosis respiratory mucus with dextran
Assay type: physicochemical, human
Settings: FIG. 2
Method: The magnetic microrheometer technique is used to measure the viscosity and elasticity of mucus (19). A 100 μm steel ball is positioned in a 5-10 mg sample of mucus, and the motion of this sphere under the influence of an electromagnet is used to determine the rheological properties of the mucus. The image of the steel ball is projected via a microscope onto a pair of photocells, whose output is amplified and transmitted to a digital storage oscilloscope. By plotting the displacement of the ball against the magnetic driving force, the viscoelastic properties of the mucus can be ascertained. Two derivative parameters—mucociliary clearability index (MCI) and cough clearability index (CCl)—are computed from in vitro relationships (King M. Role of mucus viscoelasticity in cough clearance. Biorheology 1987; 24: 589-597).
Low molecular weight dextran is a potential mucolytic treatment for cystic fibrosis lung disease. In pre-clinical testing, it promoted clearance by both mucociliary and airflow mechanisms, and the drug has passed a Phase 1 safety trial in normal subjects. A Phase 2 clinical trial of aerosolized low molecular weight dextran in cystic fibrosis patients has been completed, and further trials are planned. […]

HMW dextran [XL “D”]
elasticity relative to viscosity (spinnability relative to log G*): tends to raise elasticity relative to viscosity
